Measurements as given in patent US9611221B2, “Histone demethylase inhibitors” (CELGENE QUANTICEL RESEARCH, INC., priority 2012, dated 2017).

System: KYSE-150 esophageal carcinoma cell line
Experiment: In vitro cell-based assay: cellular proliferation via BrdU incorporation ELISA
Design: species or system human
Settings: KYSE-150 cells, 168 hours compound incubation

3-{[(6-chloro-1-hydroxy-1,2,3,4- tetrahydronaphthalen-1- yl)methyl]amino}pyridine-4-carboxylic acid [Example 67]
IC50: 1 to 10 µM
